Molecular target: hERG potassium ion channels (Homo sapiens (Human), UniProt Q12809)
Experiment: hERG potassium current, whole cell patch clamp in HEK-293-hERG cells
Conditions: 0.1 μM

Chains of the proteins cited; added tags and fusions are not shown. Lines headed by an entry give the natural chain unless they say otherwise; changes in a name come on top.
UniProt Q12809: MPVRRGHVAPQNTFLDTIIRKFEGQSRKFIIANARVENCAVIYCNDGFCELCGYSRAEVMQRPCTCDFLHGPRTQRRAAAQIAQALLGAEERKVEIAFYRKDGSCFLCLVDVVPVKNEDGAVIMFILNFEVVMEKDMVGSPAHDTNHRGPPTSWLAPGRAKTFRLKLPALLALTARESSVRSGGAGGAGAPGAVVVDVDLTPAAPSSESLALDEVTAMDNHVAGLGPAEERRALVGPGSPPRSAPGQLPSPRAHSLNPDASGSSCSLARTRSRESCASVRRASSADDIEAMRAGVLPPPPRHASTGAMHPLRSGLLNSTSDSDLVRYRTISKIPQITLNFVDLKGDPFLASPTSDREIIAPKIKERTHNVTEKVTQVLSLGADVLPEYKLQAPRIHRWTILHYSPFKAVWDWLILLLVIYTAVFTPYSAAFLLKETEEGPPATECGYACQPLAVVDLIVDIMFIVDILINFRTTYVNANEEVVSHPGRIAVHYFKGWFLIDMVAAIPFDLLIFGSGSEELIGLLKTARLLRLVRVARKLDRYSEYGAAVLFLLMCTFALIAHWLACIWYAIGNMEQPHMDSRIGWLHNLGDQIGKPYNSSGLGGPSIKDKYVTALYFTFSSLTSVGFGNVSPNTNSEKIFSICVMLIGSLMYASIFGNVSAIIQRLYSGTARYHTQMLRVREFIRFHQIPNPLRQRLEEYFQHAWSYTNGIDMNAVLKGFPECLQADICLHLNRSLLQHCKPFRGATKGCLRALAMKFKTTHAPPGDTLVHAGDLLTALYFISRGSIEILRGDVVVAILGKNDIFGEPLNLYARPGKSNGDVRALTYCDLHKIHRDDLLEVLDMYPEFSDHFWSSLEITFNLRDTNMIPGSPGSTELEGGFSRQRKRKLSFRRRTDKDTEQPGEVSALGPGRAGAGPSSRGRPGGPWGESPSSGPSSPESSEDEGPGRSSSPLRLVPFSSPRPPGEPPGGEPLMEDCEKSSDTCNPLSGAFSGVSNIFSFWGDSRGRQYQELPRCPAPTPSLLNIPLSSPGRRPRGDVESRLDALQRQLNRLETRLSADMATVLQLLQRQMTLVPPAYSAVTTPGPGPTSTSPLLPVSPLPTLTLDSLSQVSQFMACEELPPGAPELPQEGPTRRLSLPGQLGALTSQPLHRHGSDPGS

COc1cc(N)c(Cl)cc1C(=O)NC1CCN(CCCOc2ccc(F)cc2)CC1OC (stereo not shown) [Cisapride]
The inhibition rate on hERG current: 86.36%

From patent US20250064789A1, “KETOAMIDE DERIVATIVES AND PHARMACEUTICAL USES THEREOF” (priority 2022, published 2025)
